The source of these data is US20090035258A1, “METHODS OF TREATING CANCER BY ADMINISTERING HUMAN IL-18 COMBINATIONS” (priority 2007, published 2009).

The test concerns MOPC315 murine plasmocytoma transfected with ErbB2 (HER2). Description: IL-18 and HERCEPTIN combination in mouse plasmacytoma model. The class given is in vivo. The conditions noted are these: study MOPC.D3J03; HERCEPTIN alone. Here is the method: Both the MOPC315.D3j005 and MOPC.D3j03 studies were analyzed to evaluate effect of murine IL-18 (SEQ ID NO:2) combination therapy with HERCEPTIN® on the growth of murine plasmocytoma. For this experiment we had to transfect MoPC315 cells with ErbB2 (HER2). For transfection, we used 1.5 ug ErbB2 expression vector (BioCat—108912—cdna3.1(−) ErB2) in a 6-well dish, as described using liposomal transfection with Lipofectamine™ and Optimem™ media from Gibco. Selective pressure neomycin (450 ug/ml G418 Sigma G6816) was added to the cultures after 2 days. Initial positive populations were selected by fluorescent microscopic inspection of in situ cultures stained with Alexafluor488 labeled HERCEPTIN® monoclonal antibody and cloned by limiting dilution (206434 p 70-72). D3 ErbB2 expression tested with Alexafluor488 labeled HERCEPTIN® flow cytometry. MOPC.D3 cell line was selected and used for evaluation of HERCEPTIN® and IL-18 anti-tumor efficacy.
This study employed the combination of mIL-18 (SEQ ID NO:2) and HERCEPTIN®, an anti-Her2/neu receptor antibody, with the goal to use this therapy in breast cancer in a clinical trial. Combination therapy was tested in the well established murine plasmocytoma cell line, MOPC315. The tumor line was obtained from ATCC and transduced with the Her2 receptor in-house. […]
The data are expressed as mean+/−SD (FIG. 17), and as median+/−range (FIG. 18). […]

On to “HERCEPTIN®: an anti-Her2/neu receptor antibody”, for which the “anti-tumor activity as monotherapy” value is “minimal activity”.
